The text below walks through data of patent publication US6350768B1 (Aventis Pharma S.A., priority 1999, dated 2002).

This test concerns purified rat motoneurons. The settings on record: BDNF 1 ng/ml.

On to `Nc1nc2ccc(OC(F)(F)F)cc2s1` [Riluzole, 2-amino-6-trifluoromethoxybenzothiazole], for which the “Number of motoneurons, Mean (± SEM)” value (mean of 8 measurements, 4 wells, ALS serum 0.1%, Riluzole 3 × 15^−5 M alone) stood at 7.5. The “survival of the motoneurons” value (medium treated with riluzole alone, ALS serum) was determined as 19%.
